# Measured affinities in a library of Ab-14 heavy chain variants

Source: Engelhart et al. 2022 (doi:10.1038/s41597-022-01779-4), MIT Lincoln Laboratory and A-Alpha Bio; data file from the FLAb repository.

All variants were tested on one target, the spike HR2 peptide PDVDLGDISGINAS (SARS-CoV-2).

Parent: Ab-14, a human scFv built as VH, three GGGGS repeats, VL. Only the CDRs of the heavy chain vary.
VH: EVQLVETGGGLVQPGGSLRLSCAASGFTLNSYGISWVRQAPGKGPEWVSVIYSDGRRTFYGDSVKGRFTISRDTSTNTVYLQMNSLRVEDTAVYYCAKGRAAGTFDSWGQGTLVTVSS
VL: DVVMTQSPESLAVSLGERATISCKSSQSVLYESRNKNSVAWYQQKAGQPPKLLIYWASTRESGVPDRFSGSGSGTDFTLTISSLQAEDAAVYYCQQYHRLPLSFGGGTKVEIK

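Phage display of a naive human antibody library on the peptide gave the parent. The library (AAYL49) carries one to three amino acid substitutions per variant, with no insertions or deletions. The assay is AlphaSeq: two haploid yeast populations carry antibody and antigen on their surface. After mating in shaken culture at 30 °C for 16 h, diploids were selected and their barcode pairs sequenced. Each replicate has its own calibration line, from reference interactions of the BCL2 family. Each pool was mated in three replicate cultures.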

Variants are written as CDR1, CDR2 and CDR3 of the heavy chain (limits as in the source). Parent: GFTLNSYGIS, VIYSDGRRTFYGDSVK, GRAAGTFDS. Numbers give log10(Kd / nM), so 0 is 1 nM and 3 is 1 µM. Smaller is tighter. The mean shown is taken over the replicates in which the pair was detected. "n.d." means that the variant was in the library but no mating with the target was seen in that replicate; the authors take this as a sign of poor binding, and no number exists. Background: pairings of library AAYL49 with three empty control strains gave a value in 15% of cases (median 4.06, 5th percentile 2.83). Values in that range, when seen in few replicates, are hard to tell from nonspecific mating. Also given: how often the same scFv was detected with the empty control strains, with their mean in brackets.

CDR-H1 | CDR-H2 | CDR-H3 | replicates, log10 nM | mean log10 Kd (nM) | signal with controls
GFTLNSYGIS | VIYNDGARTFYGDSVK | GAAAGTFDS | n.d. / 5.34 / n.d. | 5.34 | 5/9 (4.34)
GFWLNSQGIS | VIYSDGRATFYGDSVK | GRAAGTFDS | n.d. / n.d. / n.d. | n.d. | 0/9
GFKLNSYGIS | VIYSDGRSTFYGDSVF | GRAAGTFDS | 3.19 / n.d. / n.d. | 3.19 | 4/9 (4.16)
GFTLNSYGIS | VIYSDCRRTFYCDSVK | GRAAWTFDS | n.d. / n.d. / n.d. | n.d. | 0/9
GFTVNSYGIP | VIYSDGRRTFYGDSVQ | GRAAGTFDS | n.d. / n.d. / n.d. | n.d. | 0/9
GFTANSYGIS | VIYSDGRVTFYFDSVK | GRAAGTFDS | n.d. / n.d. / n.d. | n.d. | 0/9
GFTLNSYGIS | VIYSDGRRTFYFQSVK | GNAAGTFDS | n.d. / 3.67 / n.d. | 3.67 | 4/9 (4.19)
GFTLNSNGIS | YIYSPGRRTFYGDSVK | GRAAGTFDS | n.d. / n.d. / n.d. | n.d. | 0/9
VFTLNSHGIS | VIYSDGRLTFYGDSVK | GRAAGTFDS | n.d. / n.d. / n.d. | n.d. | 1/9 (3.29)
GFTLHSYGIS | VIYTDGGRTFYGDSVK | GRAAGTFDS | n.d. / n.d. / 3.78 | 3.78 | 0/9
GFTTNSYGIS | VIYSDGRRTFYGDSVT | GTAAGTFDS | n.d. / n.d. / n.d. | n.d. | 0/9
GFTLNSYGIS | VIYSDGRRTRYGDSVL | GRVAGTFDS | 3.06 / 2.99 / 2.82 | 2.96 | 5/9 (3.74)
GFTPNSYGIS | VIRSDGRRTFYGDSVK | GRAAGTFDS | n.d. / n.d. / n.d. | n.d. | 0/9
GFTLNSYGIS | GIYSDGRRTFYGDEVK | GRAAWTFDS | 4.50 / n.d. / n.d. | 4.50 | 1/9 (2.98)
GFTLNSYGIS | VIYSDGERTFYGDAVK | GRAAGTFDS | 0.62 / 0.83 / 0.75 | 0.74 | 3/9 (5.49)
GFTLNSYGIS | VIYSDGRRTFYGDSVV | QRARGTFDS | n.d. / n.d. / 5.06 | 5.06 | 1/9 (3.97)
GFTLRSWGIN | VIYSDGRRTFYGDSVK | GRAAGTFDS | n.d. / n.d. / n.d. | n.d. | 1/9 (2.85)
MFTLNSYGIS | PIYSDGRRTFYGDYVK | GRAAGTFDS | 3.80 / n.d. / n.d. | 3.80 | 1/9 (3.91)
GFTVNSFGIS | VICSDGRRTFYGDSVK | GRAAGTFDS | n.d. / n.d. / n.d. | n.d. | 0/9
GFTLNSYGIS | VIYSDGRRTFYGDSVK | GRAAGTFVS | 1.35 / 1.65 / 1.56 | 1.52 | 0/9
GFTLSSYGIS | VIYSDGRWTFYGDSDK | GRAAGTFDS | 2.12 / 2.04 / 2.13 | 2.09 | 1/9 (3.83)
GFTLNSYGIS | VIRIDGRRTFYGDSVK | GRACGTFDS | 4.15 / n.d. / n.d. | 4.15 | 1/9 (4.76)
GFTLNKYGIS | VIYFDGPRTFYGDSVK | GRAAGTFDS | n.d. / n.d. / 4.22 | 4.22 | 1/9 (3.72)
GFTLNSYKIS | VIYSDGRMTFYQDSVK | GRAAGTFDS | n.d. / n.d. / n.d. | n.d. | 0/9
GFTLNSYGIS | VINSDGRRTFYGDSVK | HRAAGMFDS | n.d. / n.d. / n.d. | n.d. | 1/9 (2.57)
GFTLNSYGYS | VIYSDGRRTFYGMSEK | GRAAGTFDS | n.d. / n.d. / n.d. | n.d. | 0/9
GLTLNSYGIS | VIYSDGRRTFYGDSVK | GRAAGTFNS | n.d. / n.d. / n.d. | n.d. | 0/9
MFTMNSYGIM | VIYSDGRRTFYGDSVK | GRAAGTFDS | n.d. / n.d. / n.d. | n.d. | 0/9
GFTLNSYGIM | VIYSDGRRDFYGDSVK | GRAAGTFDS | n.d. / 3.17 / n.d. | 3.17 | 0/9
GFTLNSQGIL | VIYSDGRRTFYGDSVK | GRVAGTFDS | n.d. / n.d. / n.d. | n.d. | 0/9
GFTLHSYGIS | VIYSDGRRTFYGDSKS | GRAAGTFDS | n.d. / n.d. / n.d. | n.d. | 0/9
GFTLNGYGIS | EIYSDGRNTFYGDSVK | GRAAGTFDS | n.d. / n.d. / n.d. | n.d. | 1/9 (2.97)
GFTLNSYGIS | VIYYDGRRCFYGDSVK | GRAAGDFDS | n.d. / n.d. / n.d. | n.d. | 0/9

For reference, the parent read 0.65 as the reference entry and 4.11 (one replicate of three) as a member of this library.